Source: ChEMBL document CHEMBL1121477, “Noval antitumor nitrosoureas and related compounds and their reactions with DNA” (1980)

Experiments:
L1210 [1] = test: Antitumor activity against lymphoid leukemia L1210 cell implanted in mice was measured by mean survival of mice expressed as treated/control at a dosage of 20 mg/kg (11.3/7.1)
L1210 [2] = test: Antitumor activity against lymphoid leukemia L1210 cell implanted in mice was measured by %T/C at a dosage of 20 mg/kg

Compound N/C(=N\[N+](=O)[O-])N(CCCl)N=O has a Mean survival (L1210 [1]) of 11.3 time day-1 and a T/C (L1210 [2]) of 159%.
